# Results: ChEMBL document CHEMBL4043202, “Synthesis, pH dependent, plasma and enzymatic stability of bergenin prodrugs for potential use against rheumatoid arthritis” (Bioorg Med Chem, 2017)
# How the values were obtained:
# [1] = Distribution coefficient, log D of the compound in PBS/n-octanol at pH 7.4 at 25 degC by HPLC method; conditions: octanol/water
# [2] = Partition coefficient, log P of the compound in water/n-octanol at pH 7.4 at 25 degC by HPLC method
compound,measurement,setting,value
COc1c(OC(=O)c2c([N+](=O)[O-])cc([N+](=O)[O-])cc2[N+](=O)[O-])cc2c(c1O)[C@@H]1O[C@H](COC(=O)c3c([N+](=O)[O-])cc([N+](=O)[O-])cc3[N+](=O)[O-])[C@@H](O)[C@H](O)[C@H]1OC2=O,logD,[1],1.8
same,logP,[2],2.79
